This is an account of results in paper PMC11237882 (2024).

Protein sequences, listed by entry. Tags and fused reporters are not part of them. Lines headed by an entry give the natural chain unless they say otherwise; changes in a name come on top.
UniProt Q9P2A4: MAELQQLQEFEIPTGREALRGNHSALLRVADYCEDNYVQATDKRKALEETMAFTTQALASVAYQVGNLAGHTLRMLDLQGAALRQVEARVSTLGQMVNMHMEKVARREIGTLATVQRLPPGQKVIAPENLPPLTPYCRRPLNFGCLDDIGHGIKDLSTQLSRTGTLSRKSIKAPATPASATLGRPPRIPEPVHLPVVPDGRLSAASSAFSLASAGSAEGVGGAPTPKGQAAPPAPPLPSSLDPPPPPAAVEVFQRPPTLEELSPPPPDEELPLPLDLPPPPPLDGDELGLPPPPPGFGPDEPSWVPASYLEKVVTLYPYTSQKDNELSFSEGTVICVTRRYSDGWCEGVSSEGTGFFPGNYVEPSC
UniProt Q7Z5R6: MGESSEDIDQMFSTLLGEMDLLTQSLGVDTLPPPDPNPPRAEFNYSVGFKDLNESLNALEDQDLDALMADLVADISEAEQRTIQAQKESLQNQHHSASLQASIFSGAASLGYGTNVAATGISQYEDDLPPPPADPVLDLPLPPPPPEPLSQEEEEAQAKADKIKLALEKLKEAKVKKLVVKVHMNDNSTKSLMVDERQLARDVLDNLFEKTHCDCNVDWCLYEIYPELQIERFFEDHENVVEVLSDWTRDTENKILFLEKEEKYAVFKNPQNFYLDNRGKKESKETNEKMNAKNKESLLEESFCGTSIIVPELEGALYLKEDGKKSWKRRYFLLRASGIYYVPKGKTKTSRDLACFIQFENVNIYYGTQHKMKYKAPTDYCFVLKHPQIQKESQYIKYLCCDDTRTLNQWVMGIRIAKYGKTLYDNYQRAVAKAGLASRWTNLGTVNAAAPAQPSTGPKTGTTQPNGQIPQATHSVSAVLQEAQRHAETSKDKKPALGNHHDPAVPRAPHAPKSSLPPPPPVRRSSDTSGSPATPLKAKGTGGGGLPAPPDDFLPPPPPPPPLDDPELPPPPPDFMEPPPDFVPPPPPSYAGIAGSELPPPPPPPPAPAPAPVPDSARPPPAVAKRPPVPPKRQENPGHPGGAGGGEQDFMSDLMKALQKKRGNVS
UniProt Q969T9: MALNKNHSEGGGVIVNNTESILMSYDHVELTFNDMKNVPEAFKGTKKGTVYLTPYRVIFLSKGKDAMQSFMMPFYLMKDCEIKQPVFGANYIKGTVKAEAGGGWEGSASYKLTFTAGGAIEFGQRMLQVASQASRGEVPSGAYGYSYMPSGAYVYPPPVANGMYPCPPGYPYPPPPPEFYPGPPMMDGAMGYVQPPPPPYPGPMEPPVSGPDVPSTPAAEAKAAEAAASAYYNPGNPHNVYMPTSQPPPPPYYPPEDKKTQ
UniProt Q16643: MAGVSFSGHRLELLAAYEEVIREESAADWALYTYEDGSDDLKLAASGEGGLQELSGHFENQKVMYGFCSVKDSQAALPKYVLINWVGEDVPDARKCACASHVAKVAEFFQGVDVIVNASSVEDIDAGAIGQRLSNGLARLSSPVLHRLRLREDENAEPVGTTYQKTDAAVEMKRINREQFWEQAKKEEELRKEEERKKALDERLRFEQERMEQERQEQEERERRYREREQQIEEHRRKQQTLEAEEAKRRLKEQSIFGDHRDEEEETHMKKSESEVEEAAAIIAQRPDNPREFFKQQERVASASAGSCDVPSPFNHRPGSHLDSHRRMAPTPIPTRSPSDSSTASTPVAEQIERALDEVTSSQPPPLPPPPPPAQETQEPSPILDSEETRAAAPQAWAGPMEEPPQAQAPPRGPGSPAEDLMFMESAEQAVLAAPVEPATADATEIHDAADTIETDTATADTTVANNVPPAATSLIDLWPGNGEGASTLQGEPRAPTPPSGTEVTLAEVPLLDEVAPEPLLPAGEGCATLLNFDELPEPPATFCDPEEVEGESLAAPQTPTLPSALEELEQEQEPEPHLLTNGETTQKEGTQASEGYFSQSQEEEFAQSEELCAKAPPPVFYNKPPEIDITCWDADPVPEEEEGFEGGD
UniProt Q9UPP2: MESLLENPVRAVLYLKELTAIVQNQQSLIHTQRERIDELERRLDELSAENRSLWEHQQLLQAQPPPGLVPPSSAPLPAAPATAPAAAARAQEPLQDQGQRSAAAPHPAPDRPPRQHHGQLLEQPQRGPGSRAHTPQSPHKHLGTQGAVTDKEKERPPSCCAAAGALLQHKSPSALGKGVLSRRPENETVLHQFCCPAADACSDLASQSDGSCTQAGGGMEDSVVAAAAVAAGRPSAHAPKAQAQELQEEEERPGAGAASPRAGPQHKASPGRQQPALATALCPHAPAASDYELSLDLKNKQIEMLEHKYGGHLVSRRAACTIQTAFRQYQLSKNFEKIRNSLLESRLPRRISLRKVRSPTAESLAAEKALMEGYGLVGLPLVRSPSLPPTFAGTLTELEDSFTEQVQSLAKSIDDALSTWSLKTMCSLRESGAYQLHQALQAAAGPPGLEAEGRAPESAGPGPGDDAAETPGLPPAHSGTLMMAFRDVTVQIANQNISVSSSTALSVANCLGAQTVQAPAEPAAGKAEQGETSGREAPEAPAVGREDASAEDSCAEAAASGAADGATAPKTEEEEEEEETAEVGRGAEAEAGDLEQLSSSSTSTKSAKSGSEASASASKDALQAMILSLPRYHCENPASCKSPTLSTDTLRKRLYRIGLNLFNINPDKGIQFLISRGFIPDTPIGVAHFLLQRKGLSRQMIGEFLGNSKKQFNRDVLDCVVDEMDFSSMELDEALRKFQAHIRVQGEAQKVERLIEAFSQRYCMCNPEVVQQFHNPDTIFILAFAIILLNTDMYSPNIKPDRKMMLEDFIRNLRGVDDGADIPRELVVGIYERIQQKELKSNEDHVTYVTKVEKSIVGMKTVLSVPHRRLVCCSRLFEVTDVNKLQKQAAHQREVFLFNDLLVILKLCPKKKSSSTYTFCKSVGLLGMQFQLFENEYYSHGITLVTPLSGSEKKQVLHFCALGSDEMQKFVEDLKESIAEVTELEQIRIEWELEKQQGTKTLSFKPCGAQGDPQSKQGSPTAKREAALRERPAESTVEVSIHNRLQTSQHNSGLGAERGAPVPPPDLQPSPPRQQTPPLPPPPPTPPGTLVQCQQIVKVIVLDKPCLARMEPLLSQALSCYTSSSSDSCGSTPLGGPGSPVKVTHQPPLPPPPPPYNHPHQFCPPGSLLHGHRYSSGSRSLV
UniProt P17676: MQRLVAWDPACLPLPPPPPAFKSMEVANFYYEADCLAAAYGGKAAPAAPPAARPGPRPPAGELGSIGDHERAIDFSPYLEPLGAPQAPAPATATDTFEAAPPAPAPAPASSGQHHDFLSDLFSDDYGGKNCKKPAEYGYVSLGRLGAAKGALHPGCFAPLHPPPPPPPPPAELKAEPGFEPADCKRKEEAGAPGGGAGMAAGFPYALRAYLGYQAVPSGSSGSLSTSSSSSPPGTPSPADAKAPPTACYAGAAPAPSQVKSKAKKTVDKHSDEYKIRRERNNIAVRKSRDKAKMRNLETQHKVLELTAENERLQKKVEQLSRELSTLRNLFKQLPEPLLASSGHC
UniProt Q9Y6W5: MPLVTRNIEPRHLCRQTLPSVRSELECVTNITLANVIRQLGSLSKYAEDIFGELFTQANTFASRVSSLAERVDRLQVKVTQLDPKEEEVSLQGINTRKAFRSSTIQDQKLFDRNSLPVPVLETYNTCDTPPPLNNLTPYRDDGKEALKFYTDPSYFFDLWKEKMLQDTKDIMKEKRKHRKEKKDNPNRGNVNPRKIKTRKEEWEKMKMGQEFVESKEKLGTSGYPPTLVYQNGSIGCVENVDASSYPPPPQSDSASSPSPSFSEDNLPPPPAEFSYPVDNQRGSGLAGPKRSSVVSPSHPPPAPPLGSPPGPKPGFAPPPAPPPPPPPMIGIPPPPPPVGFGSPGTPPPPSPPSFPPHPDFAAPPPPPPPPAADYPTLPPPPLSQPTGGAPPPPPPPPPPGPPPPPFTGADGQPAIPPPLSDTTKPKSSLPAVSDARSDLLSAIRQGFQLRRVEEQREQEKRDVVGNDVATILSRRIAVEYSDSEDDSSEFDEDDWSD
UniProt O60469: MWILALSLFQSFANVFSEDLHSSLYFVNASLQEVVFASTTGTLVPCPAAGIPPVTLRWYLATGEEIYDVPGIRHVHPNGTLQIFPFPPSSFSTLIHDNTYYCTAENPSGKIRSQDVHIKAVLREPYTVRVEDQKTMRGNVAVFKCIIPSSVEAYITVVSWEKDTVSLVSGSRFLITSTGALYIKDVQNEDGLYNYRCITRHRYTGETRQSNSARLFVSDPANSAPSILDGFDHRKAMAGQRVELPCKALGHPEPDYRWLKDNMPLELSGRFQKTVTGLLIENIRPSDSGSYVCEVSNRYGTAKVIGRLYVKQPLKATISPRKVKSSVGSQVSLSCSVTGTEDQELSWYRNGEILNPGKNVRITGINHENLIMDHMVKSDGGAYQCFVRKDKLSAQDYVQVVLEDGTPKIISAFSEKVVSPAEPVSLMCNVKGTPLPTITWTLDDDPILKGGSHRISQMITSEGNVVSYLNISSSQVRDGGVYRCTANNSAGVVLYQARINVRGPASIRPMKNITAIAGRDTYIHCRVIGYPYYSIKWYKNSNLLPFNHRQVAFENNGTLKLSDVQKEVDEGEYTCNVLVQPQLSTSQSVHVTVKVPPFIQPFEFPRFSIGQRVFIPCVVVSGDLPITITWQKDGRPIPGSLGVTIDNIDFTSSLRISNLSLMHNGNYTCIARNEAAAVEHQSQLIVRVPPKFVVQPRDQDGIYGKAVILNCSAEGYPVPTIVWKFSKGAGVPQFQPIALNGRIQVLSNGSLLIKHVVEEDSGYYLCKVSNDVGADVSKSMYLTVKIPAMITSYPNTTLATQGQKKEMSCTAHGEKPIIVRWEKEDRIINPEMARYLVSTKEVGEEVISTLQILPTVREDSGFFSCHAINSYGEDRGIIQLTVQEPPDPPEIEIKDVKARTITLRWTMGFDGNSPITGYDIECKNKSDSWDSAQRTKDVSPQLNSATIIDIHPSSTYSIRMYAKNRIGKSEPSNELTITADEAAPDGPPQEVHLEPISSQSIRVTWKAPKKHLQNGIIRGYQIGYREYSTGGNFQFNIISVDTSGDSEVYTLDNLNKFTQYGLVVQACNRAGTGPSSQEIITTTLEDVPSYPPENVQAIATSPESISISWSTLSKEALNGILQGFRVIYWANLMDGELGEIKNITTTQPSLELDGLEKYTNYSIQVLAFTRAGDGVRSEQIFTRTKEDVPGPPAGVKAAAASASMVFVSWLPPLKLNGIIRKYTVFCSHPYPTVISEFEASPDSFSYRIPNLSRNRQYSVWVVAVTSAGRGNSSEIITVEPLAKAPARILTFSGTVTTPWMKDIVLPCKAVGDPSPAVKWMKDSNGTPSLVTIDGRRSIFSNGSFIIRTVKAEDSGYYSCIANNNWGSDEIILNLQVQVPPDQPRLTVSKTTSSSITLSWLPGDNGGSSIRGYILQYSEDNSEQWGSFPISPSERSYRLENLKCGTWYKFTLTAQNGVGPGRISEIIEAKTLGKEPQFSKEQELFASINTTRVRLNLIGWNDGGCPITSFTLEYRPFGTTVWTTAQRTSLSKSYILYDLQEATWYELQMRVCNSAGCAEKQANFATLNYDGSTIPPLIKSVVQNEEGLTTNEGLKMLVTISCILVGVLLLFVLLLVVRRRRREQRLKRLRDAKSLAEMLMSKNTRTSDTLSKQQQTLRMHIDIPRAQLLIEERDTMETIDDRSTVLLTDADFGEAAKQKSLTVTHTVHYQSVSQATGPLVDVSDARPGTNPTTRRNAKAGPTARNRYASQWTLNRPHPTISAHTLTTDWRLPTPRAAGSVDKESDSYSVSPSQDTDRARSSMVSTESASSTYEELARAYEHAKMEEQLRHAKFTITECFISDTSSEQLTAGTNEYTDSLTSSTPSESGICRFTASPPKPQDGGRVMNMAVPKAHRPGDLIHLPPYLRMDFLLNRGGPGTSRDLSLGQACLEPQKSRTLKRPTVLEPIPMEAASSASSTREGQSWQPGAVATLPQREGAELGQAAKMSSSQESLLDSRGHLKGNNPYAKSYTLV

Experiment in all cases: BLI (SUMO-peptide on tip, monomeric EVH1)
The target in one experiment is T1, ABI3 (Homo sapiens (Human), UniProt Q9P2A4).
T1 chain: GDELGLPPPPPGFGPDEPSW

In another experiment the target is T2, APBB1IP_1 (Homo sapiens (Human), UniProt Q7Z5R6).
T2 chain: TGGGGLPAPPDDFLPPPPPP

The target in the next experiment is T3, WBP2 (Homo sapiens (Human), UniProt Q969T9).
T3 chain: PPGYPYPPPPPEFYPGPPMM

Another experiment has as its target T4, DBN1 (Homo sapiens (Human), UniProt Q16643).
T4 chain: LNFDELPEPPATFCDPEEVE

Another experiment has as its target T5, IQSEC3 (Homo sapiens (Human), UniProt Q9UPP2).
T5 chain: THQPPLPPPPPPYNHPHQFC

The next experiment deals with T6, CEBPB (Homo sapiens (Human), UniProt P17676).
T6 chain: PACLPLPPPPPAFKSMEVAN

The target in the next experiment is T7, PCDH15 (Homo sapiens (Human), UniProt Q96QU1).
T7 chain: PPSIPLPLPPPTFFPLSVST

The target of another experiment is T8, APBB1IP_2 (Homo sapiens (Human), UniProt Q7Z5R6).
T8 chain: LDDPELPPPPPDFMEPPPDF

Another experiment has as its target T9, WASF2 (Homo sapiens (Human), UniProt Q9Y6W5).
T9 chain: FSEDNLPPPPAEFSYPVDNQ

The target in the next experiment is T10, DSCAM (Homo sapiens (Human), UniProt O60469).
T10 chain: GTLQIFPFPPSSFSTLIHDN

B1: ENAH (protein)
chain: MSEQSICQARAAVMVYDDANKKWVPAGGSTGFSRVHIYHHTGNNTFRVVGRKIQDHQVVINCAIPKGLKYNQATQTFHQWRDARQVYGLNFGSKEDANVFASAMMHALEVLNS
One may read the Kd as a measure of binding affinity in units of concentration. Higher therefore signals lower affinity. With B1, the Kd in the experiment with ABI3 is 26 µM; in the experiment with APBB1IP_1, 26 µM; with WBP2 it was 12 µM; in the experiment with DBN1, 57 µM; with IQSEC3, 57 µM; with CEBPB, 57 µM. Also, in the experiment with PCDH15, binding was characterised by a dissociation constant (Kd) of 108 µM.

B2: HOMER1 (protein)
chain: MGEQPIFSTRAHVFQIDPNTKKNWVPTSKHAVTVSYFYDSTRNVYRIISLDGSKAIINSTITPNMTFTKTSQKFGQWADSRANTVYGLGFSSEHHLSKFAEKFQEFKEAARLA
On to B2, for which the Kd with APBB1IP_2 came out at 25 µM; with WASF2, 13 µM; with DBN1 it was 12 µM; with IQSEC3, 38 µM; with CEBPB, 37 µM; in the experiment with DSCAM, 55 µM.
